Patent US20250092369A1, “METHOD FOR IMPROVING TRANSCYTOSIS PROPERTIES OF HUMAN BLOOD-BRAIN BARRIER MODEL” (Wisconsin Alumni Research Foundation, priority 2023, published 2025)

System: gene-edited PB-TRE-N1ICD hPSC-EPCs
Experiment: Fluorescent albumin accumulation assay in gene-edited PB-TRE-N1ICD hPSC-EPCs
Type: cell-based, human
Details: PBS-treated 10(+CR2) cells, 30 min pretreatment: 3 mM MβCD, 20 µM CPZ or 2 μM rottlerin
Procedure: Fixable, Alexa Fluor 647-conjugated bovine serum albumin (BSA) (Invitrogen) was used as a substrate to estimate total fluid-phase endocytosis. D15 cultures of gene-edited PB-TRE-N1ICD hPSC-EPCs treated with 4 μM CHIR with or without 1 μg/mL doxycycline were pre-treated for 30 min at 37° C. with or without various endocytic pathway inhibitors (3 mM methyl-β-cyclodextrin [MβCD, Sigma-Aldrich], 20 µM chlorpromazine [CPZ, Sigma-Aldrich], or 2 μM rottlerin [Tocris]). Similarly, D6 cultures of HUVECs treated with GFP or N1ICD LV were pre-treated with or without 3 mM MβCD for 30 min at 37° C. Cells were washed once with sterile DPBS and then incubated in hECSR (for hPSC-EPCs) supplemented with 5 μg/mL BSA or 1:1000 diluted DPBS, 1:100 diluted CD144-FITC or FITC isotype control antibody, and 4 μM Hoechst 33342 (Life Technologies) or EGM-2 media (for HUVECs) supplemented with 5 μg/mL BSA or 1:1000 diluted DPBS and 4 μM Hoechst 33342 at 4° C. or 37° C. for 2 h on a rotating platform at 30 rpm, protected from light. Cells were then washed 3 times with 4° C. sterile DPBS to stop the assay and wash away any extracellular BSA. […]
Flow cytometry was used to quantify accumulated BSA fluorescence within cells. […] FITC emission was detected with a 530/30 filter and AlexaFluor 647 emission was detected with a 670/14 filter. Data were analyzed with Flow Jo software.

CN(C)CCCN1c2ccccc2Sc2ccc(Cl)cc21 [CPZ, chlorpromazine]
fluorescent albumin accumulation after endocytosis inhibitor pretreatment: reduced
